Molecular target: T1, α-glucosidase (EC 3.2.1.20, from baker's yeast) (Saccharomyces cerevisiae, UniProt P53341)
T1 construct: purchased Sigma-Aldrich Chemie (Germany)
Format: biochemical
Details: read-out: α-Glucosidase inhibitory activity IC50; mean ± SD of three experiments; pH 6.9, 37°C
Procedure: Column chromatography was carried out using silica gel (230–400 mesh) obtained from Merck (Germany), RP-18 (230–400 mesh) and Sephadex LH-20 procured from Fluka (Switzerland). Pre-coated silica gel 60 F254 plates and silica gel 60 RP-18 F254S plates (Merck, Germany) were used for TLC. Spots were observed under UV at 254 and 366 nm and spraying with anisaldehyde-H2SO4 reagent (Sigma-Aldrich Chemie, Germany) and heating at 120°C for 5 min. HPLC separations were performed on a Knauer Wellchrom system connected to a photodiode array detector (Smart line system, Germany). ^1H and ^13C NMR spectra were measured on a Bruker Avance DRX 500 spectrometer operating at 500 MHz for ^1H and 125 MHz for ^13C using a 5 mm PABBO probehead. α-glucosidase (EC 3.2.1.20, from baker’s yeast, 77 U/mg), p-nitrophenyl-α-d-glucopyranoside, vitamin E 97% and 2, 2-diphenyl-picrylhydrazyl (DPPH) were obtained from Sigma-Aldrich Chemie (Germany). […]
α-Glucosidase inhibitory activities were evaluated according to the chromogenic method described by McCue et al. (2005), with some modifications. […] Absorbance of the wells was measured with a microplate reader at 405 nm, while the reaction system without plant extracts was used as control. […] The enzyme inhibitory rates of samples were calculated as follows: […]
The IC50 values of samples were calculated and reported as the mean ± standard deviation (SD) of three experiments.

Sequences of proteins named here, by UniProt entry; tags and fusion partners are left off. A change or cut given only in a name is not applied to a line headed by its entry.
UniProt P53341: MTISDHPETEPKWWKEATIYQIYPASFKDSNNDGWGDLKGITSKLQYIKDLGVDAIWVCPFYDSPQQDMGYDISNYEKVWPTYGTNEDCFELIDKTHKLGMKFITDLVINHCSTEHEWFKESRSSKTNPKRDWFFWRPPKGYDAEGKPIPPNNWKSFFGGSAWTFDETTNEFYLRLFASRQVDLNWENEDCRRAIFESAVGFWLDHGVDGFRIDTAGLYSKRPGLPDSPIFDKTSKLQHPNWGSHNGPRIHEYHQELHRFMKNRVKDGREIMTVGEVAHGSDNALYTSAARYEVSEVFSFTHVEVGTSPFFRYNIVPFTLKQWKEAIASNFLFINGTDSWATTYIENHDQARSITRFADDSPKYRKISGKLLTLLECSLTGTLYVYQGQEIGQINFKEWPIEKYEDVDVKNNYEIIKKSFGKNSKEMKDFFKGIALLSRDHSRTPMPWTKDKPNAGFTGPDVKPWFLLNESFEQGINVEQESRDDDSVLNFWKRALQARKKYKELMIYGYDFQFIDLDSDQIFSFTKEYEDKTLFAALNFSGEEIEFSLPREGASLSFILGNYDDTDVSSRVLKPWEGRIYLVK

Substance: myricetin 3-O-α-L-rhamnopyranoside [Compound 10]
- IC50: 0.6 ± 0.2 µM

— article PMC3555856, “In vitro α-glucosidase inhibitory activity of phenolic constituents from aerial parts of Polygonum hyrcanicum” (DARU Journal of Pharmaceutical Sciences, 2012)
